Measurements reported in PubChem BioAssay AID1259399 (Fisher Drug Discovery Resource Center, 2018).
Only a part is listed here, and it is no random draw. Calls of active or inactive are those of the source. No stated cut-off is given here; in the data, active means inhibition above about 40%; inactive means the rest.

Sequences of proteins named here, by UniProt entry; tags and fusion partners are left off.
UniProt Q8C6L5, whole entry: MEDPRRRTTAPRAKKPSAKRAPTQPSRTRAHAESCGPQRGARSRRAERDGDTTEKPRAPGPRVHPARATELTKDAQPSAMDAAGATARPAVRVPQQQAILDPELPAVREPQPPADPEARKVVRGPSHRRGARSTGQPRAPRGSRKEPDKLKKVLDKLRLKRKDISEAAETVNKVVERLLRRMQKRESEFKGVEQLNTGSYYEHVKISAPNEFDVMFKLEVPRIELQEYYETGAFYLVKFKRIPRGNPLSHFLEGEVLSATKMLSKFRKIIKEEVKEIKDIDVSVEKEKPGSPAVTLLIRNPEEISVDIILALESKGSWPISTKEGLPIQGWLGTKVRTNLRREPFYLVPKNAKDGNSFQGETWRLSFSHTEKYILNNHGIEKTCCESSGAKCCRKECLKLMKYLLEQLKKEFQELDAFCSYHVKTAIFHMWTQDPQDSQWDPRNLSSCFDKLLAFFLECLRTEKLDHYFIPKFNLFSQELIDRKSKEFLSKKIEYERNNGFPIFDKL

Target: Cyclic GMP-AMP synthase (Mus musculus) (UniProt Q8C6L5)
Test: cyclic GMP-AMP synthase inhibitors, mouse, primary biochemical chemiluminescence (AID 1259399);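 further: 0% = negative control wells and 100% = reference inhibitor with no enzyme activity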
Settings: recombinant cGAS, Kinase-Glo ATP depletion luminescence; at 12.5 µM; hits give high values

SMILES	inhibition
CN(C)C1(CNC(=O)c2ccccn2)CCCCC1	inactive: -7.67%
O=C(NCC1(N2CCCCC2)CCCCC1)c1cn2ccccc2n1	inactive: -7.08%
O=C(N[C@@H]1CCCC[C@H]1N1CCOCC1)c1cccc(Br)c1	inactive: -3.85%
Cc1nc(N)ncc1C(=O)NCC1(N2CCCC2)CCCCC1	inactive: 0.0229%
CN(CC1(N2CCCCC2)CCCCC1)C(=O)c1cnc2c(c1)nnn2C	inactive: -4.38%
Cn1cc(C(=O)NCC2(N3CCCC3)CCCCC2)c(=O)[nH]c1=O	inactive: -8.3%
CCn1ccc(C(=O)N(C)CC2(N3CCCCC3)CCCCC2)cc1=O	inactive: -7.02%
Cc1cccc(N(C(=O)c2ccco2)C2CCN(C(=O)OC(C)(C)C)CC2)c1	inactive: -13%
Cc1nc2ncc(C(=O)N(C)CC3(N4CCCCC4)CCCCC3)c(=O)n2[nH]1	inactive: 0.32%
O=c1[nH]c2ccccc2n1C1CCN(Cc2ccccn2)CC1	inactive: -3.62%
N#Cc1ccc(C(=O)CBr)cc1	inactive: -4.93%
COc1cccc(NC2CCN(Cc3ccncc3)CC2)c1	inactive: -4.14%
CC(C)(C)c1ncc(C(=O)NCC2(N3CCOCC3)CCCCC2)c(=O)[nH]1	inactive: -5.24%
Nc1cc(C(=O)NCC2(N3CCCC3)CCCCC2)[nH]n1	inactive: -3.59%
